“And” between values parts separate entries of the source, which are not always exact repeats. Equal entries are not always repeated. Structures can show the parent of a compound that is named as a salt.
Key:
cdk4/cyclin D1 = cdk4/cyclin D1 (Homo sapiens, UniProt P11802); test: Cyclin-dependent Kinase 4 Assay (cdk4/cyclin D1, GST-Rb substrate); format: biochemical; details: read-out: CDK4 Inhibition IC50, cdk4/cyclin D1 insect cell lysate, 10 μM ATP, 30 min at 37° C., several values = separate determinations
PC-3 = test: In vitro tumor cell proliferation, PC-3; format: cell-based, human; details: read-out: In vitro Tumor Cell Proliferation (IC50, μM) Prostate PC-3, many values given with an undefined *
A549 = test: In vitro tumor cell proliferation, A549; format: cell-based, human; details: read-out: In vitro Tumor Cell Proliferation (IC50, μM) Lung A549, many values given with an undefined *
MDA-MB-231 = test: In vitro tumor cell proliferation, MDA-MB-231; format: cell-based, human; details: read-out: In vitro Tumor Cell Proliferation (IC50, μM) Breast MDA-MB-231, sulforhodamine B or CyQUANT assay, many values given with an undefined *
Colo-205 = test: In vitro tumor cell proliferation, Colo-205; format: cell-based; details: read-out: In vitro Tumor Cell Proliferation (IC50, μM) Colon Colo-205, values given with an undefined *
MDA-MB-435 = test: In vitro tumor cell proliferation, MDA-MB-435; format: cell-based; details: read-out: In vitro Tumor Cell Proliferation (IC50, μM) Breast MDA-MB-435, values given with an undefined *
DMS-114 = test: In vitro tumor cell proliferation, DMS-114; format: cell-based, human; details: read-out: In vitro Tumor Cell Proliferation (IC50, μM) Lung DMS-114, many values given with an undefined *
DU145 = test: In vitro tumor cell proliferation, DU145; format: cell-based, human; details: read-out: In vitro Tumor Cell Proliferation (IC50, μM) Prostate DU145, many values given with an undefined *
HT-29 = test: In vitro tumor cell proliferation, HT-29; format: cell-based, human; details: read-out: In vitro Tumor Cell Proliferation (IC50, μM) Colon HT-29, many values given with an undefined *

Chains of the proteins cited; added tags and fusions are not shown.
UniProt P11802, whole entry: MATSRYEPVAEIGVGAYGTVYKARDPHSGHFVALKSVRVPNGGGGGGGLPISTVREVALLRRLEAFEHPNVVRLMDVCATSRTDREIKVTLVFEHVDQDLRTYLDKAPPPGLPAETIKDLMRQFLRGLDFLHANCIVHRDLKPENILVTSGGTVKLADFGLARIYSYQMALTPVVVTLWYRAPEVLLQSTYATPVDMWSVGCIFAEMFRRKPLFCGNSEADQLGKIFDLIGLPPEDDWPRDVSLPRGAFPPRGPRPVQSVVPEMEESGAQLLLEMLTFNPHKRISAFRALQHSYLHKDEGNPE
UniProt P24385, whole entry partner: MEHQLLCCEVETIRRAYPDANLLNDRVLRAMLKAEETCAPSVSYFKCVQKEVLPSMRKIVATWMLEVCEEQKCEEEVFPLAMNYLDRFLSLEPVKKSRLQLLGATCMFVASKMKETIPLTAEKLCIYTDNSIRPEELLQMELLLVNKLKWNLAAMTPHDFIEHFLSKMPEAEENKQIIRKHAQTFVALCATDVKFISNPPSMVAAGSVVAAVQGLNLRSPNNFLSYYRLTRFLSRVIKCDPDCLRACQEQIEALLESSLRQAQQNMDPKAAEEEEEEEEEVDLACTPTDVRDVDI

- IC50 (cdk4/cyclin D1): 7.4 µM and 7.1 µM
- IC50 (PC-3): 0.28 µM and 0.32 µM
- IC50 (A549): 0.27 µM and 0.22 µM
- IC50 (MDA-MB-231): 0.43 µM and 0.29 µM
- IC50 (Colo-205): 0.25 µM
- IC50 (MDA-MB-435): 0.38 µM and 0.35 µM
- IC50 (DMS-114): 0.4 µM and 0.26 µM
- IC50 (DU145): 0.31 µM and 0.32 µM
- IC50 (HT-29): 0.4 µM and 0.3 µM
Compound: Cc1ccc(CN2CCC(Nc3nc(N[C@H]4CC[C@H](N)CC4)nc4c3ncn4C3CCCC3)CC2)cc1Cl [Example 147-y, 2-[Trans-(4-aminocyclohexyl)amino]-6-[4-[1-(3-chloro-4-methylbenzyl)]piperidinylamino]-9-cyclopentylpurine trihydrochloride]
